Source: patent publication US20250051332A1 (priority 2022, published 2025)

Chains of the proteins cited; added tags and fusions are not shown. Lines headed by an entry give the natural chain unless they say otherwise; changes in a name come on top.
UniProt P41145: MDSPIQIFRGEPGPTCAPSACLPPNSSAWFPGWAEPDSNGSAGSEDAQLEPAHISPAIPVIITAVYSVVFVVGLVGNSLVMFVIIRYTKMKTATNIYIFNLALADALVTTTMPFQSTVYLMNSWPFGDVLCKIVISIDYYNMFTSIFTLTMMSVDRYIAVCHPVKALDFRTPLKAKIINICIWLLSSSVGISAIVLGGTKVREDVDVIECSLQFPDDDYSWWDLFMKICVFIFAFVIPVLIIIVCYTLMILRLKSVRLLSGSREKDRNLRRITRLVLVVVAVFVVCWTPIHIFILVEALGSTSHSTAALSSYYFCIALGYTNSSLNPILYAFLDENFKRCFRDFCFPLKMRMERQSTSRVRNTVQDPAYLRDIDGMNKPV

Each molecule was assayed against T1, κOR (Homo sapiens, UniProt P41145).
T1 construct: host or cells: CHO-K1
Assay type: cell-based

SMILES	Selectivity index = μOR EC50/κOR EC50
C/C=C1/CN2CC[C@]34C(=C(C(=O)OC)[C@H]1C[C@H]23)Nc1ccc(-c2ccccc2)cc14 [Compound 4, 10-Phenylakuammicine]	52
C/C=C1/CN2CC[C@]34C(=C(C(=O)OC)[C@H]1C[C@H]23)Nc1ccc(-c2ccoc2)cc14 [Compound 5, 10-(3-Furanyl)akuammicine]	820
C/C=C1/CN2CC[C@]34C(=C(C(=O)OC)[C@H]1C[C@H]23)Nc1ccc(-c2ccsc2)cc14 [Compound 6, 10-(3-Thienyl)akuammicine]	110
